Measured values taken from the supplement of paper PMC4683952.
The hits were mostly taken out for another list; the other results follow. No stated cut-off is given here; in the data, all actives reach 1.3 or more but so do some inactives.

Tested on: Lgr5 (MarsCy1-Lgr5-EGFP, U2OS)
Experiment: cell-surface Lgr5 expression (SCi1 fluorescence, background-subtracted) relative to WT DMSO (fold of DMSO control); higher = more Lgr5 at the plasma membrane, active = hit call of the paper
Conditions: U2OS MarsCy1-Lgr5-EGFP stable; treatment time: overnight; 16 µM; library: Johns Hopkins Clinical Compound Library

SMILES | cell-surface Lgr5 expression
c1ccc2cccc-2cc1 [Azulene (Sodium gualenate)] | inactive: 1.16
